Results on 2 substances are retold here after patent US12599676B2, “Cytotoxic imidazo[1,2-A]pyridine compounds and their use in therapy” (MyricX Pharma Limited, priority 2022, dated 2026).

One data set deals with NCI-N87 tumour cells. The data set is described as follows: Subcutaneous NCI-N87 human gastric xenograft model. Particulars: for tumour volumes compared to vehicle alone (Group 1): all concentrations (2.5 mg/kg or 5 mg/kg), Isotype control ADC 5 mg/kg. In kind it is in vivo, BALB/c nude mice. As for the experimental part:
In this study, 143 mice were inoculated subcutaneously in the right flank region with 1×10^7 viable NCI-N87 tumour cells resuspended in 0.1 mL of PBS mixed with Matrigel (1:1) for tumour development. 102 mice were assigned to 9 treatment groups on study day 0 when tumour volumes averaged 168.08 mm^3. […] The study was terminated on study Day 28.
Tumour volumes in mice were measured three times per week and tumour volume was calculated using the formula 0.5 (L×W2).
Tumour Growth Inhibition, ΔTGI %=((mean(C)−mean (CO))−(mean(T)−mean(TO)))/(mean(C)−mean(CO))*100% where T is the mean tumour volume of the treated group on the measurement day and TO is the mean tumour volume on Study Day 0. C is the mean tumour volume of the control Group 1 mice on the measurement day and CO is the mean tumour volume on Study Day 0.
(A xenograft is tissue or cells of one species grown in another, often human tumour cells in immunodeficient mice.)

Data set [1] concerns BT474 breast cancer cells. Briefly: Orthotopic BT474 breast cancer xenograft model. In kind it is in vivo, NOD/SCID mice. As for the experimental part:
NOD/SCID mice were implanted with estrogen pellets (17β-estradiol, 60 day release, 0.36 mg) subcutaneously in the right flank one day before the tumour inoculation. On day −8 each mouse was then injected in the right mammary fat pad with 1×10^7 viable BT474 breast cancer cells resuspended in 0.2 mL of Phosphate Buffered Saline mixed with matrigel (1:1). Mice were assigned to treatment groups when tumour volumes averaged 149.78 mm^3 on study day 0. […] The study was terminated on Study Day 35.
Each group was comprised of 10 mice. Tumour volumes in mice were measured three times per week and tumour volume was calculated using the formula 0.5 (L×W^2). The mean tumour volumes (+SEM) for each study group at each measurement are shown in FIGS. 7 and 8 plotted as Last Observation Carried Forward. Statistical analyses were carried out on tumour readings for Groups 1, 2, 3, 4 and 5 up to Study Day 23 (after this point >50% of the animals within one of the study groups were lost; Group 2) using two-way ANOVA, or a Mixed-Effects model was fitted when values were missing from groups (PRISM GraphPad Software Inc.). Statistical analysis of Group 6 was conducted until day 12 (at this point the study was terminated due to the significant loss of observed body weight). […]

The nature of data set [2]: Body weight in BT474 xenograft study. In kind it is in vivo, NOD/SCID mice. Particulars: trastuzumab or ADC Example 1 2.5 or 5 mg/kg; Example 12 2 mg/kg (Group 6). As for the experimental part: During the study, body weights were measured three times weekly for all animals. Animals were given Diet Gel for the entire duration on the study.
Data set [3] can be described thus: Body weight in NCI-N87 xenograft study. In kind it is in vivo, BALB/c nude mice. As for the experimental part:
During the study, body weights were measured three times weekly for all animals. Animals were given Diet Gel for the entire duration on the study. The mean body weights for each group during the dosing phase are presented in FIGS. 13A (2.5 mg/kg) and 13B (5 mg/kg).

As for trastuzumab deruxtecan, in the data set on NCI-N87 tumour cells (2.5 mg/Kg IV QW × 2 weeks), the “TGI study day 28” value came to 71.66%. For the same substance, in the data set with NCI-N87 tumour cells (5 mg/Kg IV QW × 2 weeks), the “TGI study day 28” value was found to be 140.71%. Further, the “tumour volumes compared to vehicle alone (Group 1)” value with NCI-N87 tumour cells is recorded as “significant decrease”. Besides, the “tumour volume compared to trastuzumab 2.5 mg/kg (Group 2)” value in the data set on NCI-N87 tumour cells (test article 2.5 mg/kg) was “significantly higher tumour volumes”. In addition, in the data set with NCI-N87 tumour cells (test article 5 mg/kg), the “tumour volume compared to ADC Example 1 2.5 mg/kg (Group 4)” value is given as “no significant difference”, the “tumour volume compared to trastuzumab 2.5 mg/kg (Group 2)” value is listed as “no significant difference” and the “tumour volume compared to trastuzumab deruxtecan 2.5 mg/kg (Group 6)” value is reported as “significant decrease”.
Consider “trastuzumab: antibody that binds HER2; heavy chain SEQ ID NO: 2, light chain SEQ ID NO: 1”, for which the “Tumor growth inhibition % on day 23” value in data set [1] (2.5 mg/kg IV once per week for four weeks) was found to be 3.6%; in data set [1] (5 mg/kg IV once per week for four weeks), 46%. Besides, the “TGI study day 28” value in the data set with NCI-N87 tumour cells (2.5 mg/Kg IV QW × 2 weeks) turned out to be 123.08%; in the data set with NCI-N87 tumour cells (5 mg/Kg IV QW × 2 weeks), 167.70%. Further, in the data set with NCI-N87 tumour cells, the “tumour volumes compared to vehicle alone (Group 1)” value is reported as “significant decrease”. Besides, the “tumour volume compared to trastuzumab 2.5 mg/kg (Group 2)” value in the data set with NCI-N87 tumour cells (test article 5 mg/kg) is listed as “significant decrease”. Moreover, the “body weights compared to vehicle control” value in data set [2] is listed as “did not differ significantly from the vehicle control”. Besides, the “Significant body weight loss (>10%)” value in data set [3] (2.5 mg/Kg (Group 2)) and in data set [3] (5 mg/Kg (Group 3)) was “one animal” each time.
